## Ab-14 light chain CDR variants: yeast mating affinities

From the AlphaSeq antibody data of Engelhart et al. 2022 (doi:10.1038/s41597-022-01779-4), copy in the FLAb collection.

Target peptide (SARS-CoV-2 spike, HR2 region): PDVDLGDISGINAS

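The starting antibody came from a phage panning campaign against this peptide. The library (AAYL50) carries one to three amino acid substitutions per variant, with no insertions or deletions. In AlphaSeq, yeast of one mating type display the scFv and yeast of the other type display the target. Binding brings cells together so that they mate, and sequencing counts the barcode pairs among the diploids. Each replicate has its own calibration line, from reference interactions of the BCL2 family. There are three technical replicates.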

Parent scFv Ab-14: VH joined to VL by three GGGGS repeats. Changes lie in the light chain CDRs alone.
VH: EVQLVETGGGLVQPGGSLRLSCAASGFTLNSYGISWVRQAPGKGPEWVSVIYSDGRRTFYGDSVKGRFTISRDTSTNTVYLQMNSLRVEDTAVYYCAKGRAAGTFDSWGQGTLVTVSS
VL: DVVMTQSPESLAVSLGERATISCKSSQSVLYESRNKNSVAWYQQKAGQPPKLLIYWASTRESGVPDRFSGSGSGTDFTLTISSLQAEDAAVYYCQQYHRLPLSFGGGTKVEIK

Changes read parent residue, position, new residue, counted from the first residue of the VL shown.
The read-out is the apparent dissociation constant on a log10 scale (nM): the lower, the stronger.
"ND" marks a missing value. The strain was present, yet no cells mated with the target were sequenced in that replicate, which points to weak or no binding.
Three control strains display no target. For library AAYL50, 18% of the pairings with them gave a signal, with a median of 4.19 and one signal in twenty below 2.99, so weak values seen in few replicates may be background.

log10 Kd (nM) by replicate	changes
4.66 ND ND	E32K+N35C+Y97R
3.65 ND ND	L30C+K36G
ND 3.26 4.05	Y31G+K36C+Y97V
1.72 1.71 1.67	R34Y+T59K+R99N
1.33 1.53 1.46	L30Q+Q95A
ND ND ND	A40L+R60M+L102A
ND ND ND	V29R+S62K+P101N
ND ND ND	T59P+R99T+L100T
ND ND ND	S28T+K36A+Q95K
ND ND ND	A40K+S58E+R99M
ND ND ND	S28D+P101F+L102P
4.72 ND 3.93	E32C+S33Q+K36Q
3.00 2.72 3.45	S28F+T59S+L100K
ND 4.41 4.59	N35C+N37S+W56I
1.98 2.13 2.20	S62K+P101I+L102R
0.72 0.97 0.79	S28T+L100W+L102E
ND ND ND	A40R+W56D+E61D
2.00 1.80 2.02	V29T+E32T+Q95A
ND ND ND	Q27P+A57W+T59P
1.96 1.96 1.90	S28H+N35L+S103C
ND ND ND	V39C+A57P+Y97N
3.20 2.84 3.70	S38R+W56Y+R60P
1.51 1.61 1.81	S28K+Y31M+N37K
ND ND ND	S25H+W56I+R60W
ND 3.08 2.37	S26K+Q27A+E61A
ND ND ND	Q27C+A57I+P101H
ND ND ND	S28E+Q95I+Y97K
ND ND ND	S28M+L30F+S38F
ND ND ND	S25A+R60Y+Y97R
0.74 0.97 0.89	K24S+Y31Q+N35T
ND ND ND	S58D+S62T+P101C
ND ND ND	Y31P+V39L
3.65 ND ND	S28V+K36Q+Q95R
2.01 1.88 2.38	S26D+Q96M+L100M
0.96 1.19 1.08	S33D+E61Q+L100M

The closing 3 entries, repeated:

changes	log10 Kd (nM) by replicate
S28V+K36Q+Q95R	3.65 ND ND
S26D+Q96M+L100M	2.01 1.88 2.38
S33D+E61Q+L100M	0.96 1.19 1.08